# In PubChem BioAssay AID720647 (Broad Institute, 2013):
# The list shows a part of the results, in another mix than the full data. Calls of active or inactive are those of the source.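 The calls were made as follows: active = drop in luminescence signal, shown as inhibition above about 50% in the replicate tests (limit read from the data, passing the limit was not always enough); inconclusive = probably only some replicates passing the limit; inactive = the rest.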
# System: Drosophila bursicon receptor LGR2 (rickets)
# Test: LGR2 cAMP reporter signal reduction – cell-based, HEK293, CRE-luciferase reporter, bursicon stimulation, primary screen (AID 720647);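 also: agonist challenge used bursicon conditioned medium at about half maximal strength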
# Details: bursicon-stimulated, 4 h, at 9.99 µM, stronger effect = higher value
row,SMILES,inhibition
1,CCC(=O)N(c1ccccc1)C1(COC)CCN(CCc2cccs2)CC1,inactive: 5.37%
2,CCC(=O)N(c1ccccc1)C1(COC)CCN(CCn2nnn(CC)c2=O)CC1,inactive: -12.9%
